Source: PubChem BioAssay (NCI)
Values joined by “and” are separate entries in the source; they are usually repeats but may differ in a detail not shown here. Identical values can stand only once. This is a selection; strong and weak results do not stand in their true shares.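 Interpretation: 100, growth as untreated; towards 0, rising growth inhibition; 0, no net growth; 0 to -100, cell death. Compounds scoring below 10 were considered active.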 Active and inactive are the calls of the source.

Columns and labels:
Experiment in all cases: NCI-60 one-dose screen, 48 h (100 = growth as untreated, 0 = no growth, -100 = all killed)
Details in all cases: 10 µM unless noted
[1] = system: MOLT-4 leukemia
[2] = system: SR leukemia
[3] = system: RPMI-8226 leukemia
[4] = system: OVCAR-8 ovarian
[5] = system: OVCAR-5 ovarian
[6] = system: OVCAR-4 ovarian
[7] = system: SK-OV-3 ovarian
[8] = system: IGROV1 ovarian
[9] = system: OVCAR-3 ovarian
[10] = system: HS 578T breast
[11] = system: NCI/ADR-RES ovarian
[12] = system: T-47D breast
[13] = system: BT-549 breast
[14] = system: MDA-MB-435 melanoma
[15] = system: SW-620 colon
[16] = system: MCF7 breast
[17] = system: HCT-116 colon
[18] = system: HCC-2998 colon
[19] = system: KM12 colon

Measured: growth

O=[N+]([O-])N=C1NCCN1
inactive: [1] 106% and 117% | [2] 99.2% and 106% | [3] 92.6% and 98.2% | [4] 111% and 98.8% | [5] 112% and 92.7% | [6] 122% and 111% | [7] 113% and 107% | [8] 113% and 86.3% | [9] 112% and 109% | [10] 110% and 81.3% | [11] 118% and 103% | [12] 89.3% and 104% | [13] 124% and 99.4% | [14] 108% and 109% | [15] 101% and 98.4% | [16] 106% and 110% | [17] 107% and 99% | [18] 102% and 104% | [19] 98.3% and 109%

CC1CN1P(=O)(Nc1ncccn1)N1CC1C (stereo not given)
inactive: [1] 98% | [2] 90% | [3] 114% | [4] 107% | [5] 95.1% | [6] 105% | [7] 106% | [8] 109% | [9] 102% | [10] 128% | [11] 95.5% | [12] 111% | [13] 106% | [14] 113% | [15] 106% | [16] 87.6% | [17] 105% | [18] 95.6% | [19] 102%

COC(=O)C1(C)COP(=O)(N2CCCC2)OC1 (stereo not given)
inactive: [1] 98.4% | [2] 87.2% | [3] 92.3% | [4] 101% | [5] 107% | [6] 105% | [7] 104% | [8] 106% | [9] 105% | [10] 105% | [11] 99.9% | [12] 98.2% | [13] 109% | [14] 109% | [15] 101% | [16] 94.6% | [17] 105% | [18] 102% | [19] 98%

O=P1(N(CCCl)CCCl)NCCC(C(F)(F)F)O1 (stereo not given)
inactive: [1] 109% | [2] 98.9% | [3] 101% | [4] 108% | [5] 101% | [6] 103% | [7] 104% | [8] 110% | [9] 111% | [10] 97.8% | [11] 101% | [12] 99.9% | [13] 94.4% | [14] 101% | [15] 98% | [16] 56% | [17] 97.1% | [18] 96.2% | [19] 101%

COc1cc([N+](=O)[O-])c([N+](=O)[O-])cc1N
inactive: [1] 87.8% | [2] 100% | [3] 83.6% | [4] 101% | [5] 98.8% | [6] 115% | [7] 100% | [8] 101% | [9] 115% | [10] 101% | [11] 97% | [12] 96.3% | [13] 101% | [14] 102% | [15] 104% | [16] 95.3% | [17] 100% | [18] 95.3% | [19] 107%

CCOC(=O)Nc1ccc([As](=O)(O)O)c(O)c1
inactive: [1] 93.2% | [2] 110% | [3] 99.4% | [4] 106% | [5] 114% | [6] 97.3% | [7] 107% | [8] 89.3% | [9] 108% | [10] 105% | [11] 111% | [12] 83.7% | [13] 72% | [14] 105% | [15] 117% | [16] 91.3% | [17] 108% | [18] 104% | [19] 107%

ClC1(Cl)SC(Cl)(Cl)C(Cl)(Cl)C1(Cl)Cl
inactive: [1] 90.5% | [2] 80.2% | [3] 111% | [4] 95.1% | [5] 109% | [6] 101% | [7] 101% | [8] 101% | [9] 107% | [10] 109% | [11] 102% | [12] 91.1% | [13] 106% | [14] 108% | [15] 104% | [16] 91.6% | [17] 104% | [18] 90.3% | [19] 98.1%

O=C(CCC(=O)Oc1c(Cl)cc([N+](=O)[O-])cc1[N+](=O)[O-])Oc1c(Cl)cc([N+](=O)[O-])cc1[N+](=O)[O-]
inactive: [1] 90.4% | [2] 101% | [3] 101% | [4] 103% | [5] 109% | [6] 107% | [7] 100% | [8] 105% | [9] 120% | [10] 111% | [11] 109% | [12] 94.3% | [13] 109% | [14] 107% | [15] 108% | [16] 105% | [17] 111% | [18] 107% | [19] 109%

CCOC(=O)NC(c1ccccc1[N+](=O)[O-])P(=O)(O)Nc1ncn[nH]1 (stereo not given)
inactive: [1] 116% | [2] 109% | [3] 102% | [4] 107% | [5] 106% | [6] 112% | [7] 108% | [8] 101% | [9] 109% | [10] 118% | [11] 105% | [12] 95.7% | [13] 122% | [14] 127% | [15] 120% | [16] 98.9% | [17] 103% | [18] 118% | [19] 109%

O=[N+]([O-])N1CCCS1(=O)=O
inactive: [1] 108% | [2] 102% | [3] 102% | [4] 104% | [5] 101% | [6] 106% | [7] 97.8% | [8] 106% | [9] 104% | [10] 106% | [11] 105% | [12] 91.1% | [13] 114% | [14] 107% | [15] 109% | [16] 102% | [17] 97.9% | [18] 105% | [19] 102%

CC(C)OP(=S)(Cl)OC(C)C
inactive: [1] 91.2% | [2] 94.6% | [3] 102% | [4] 103% | [5] 108% | [6] 93% | [7] 97.4% | [8] 96.4% | [9] 112% | [10] 107% | [11] 110% | [12] 93.7% | [13] 106% | [14] 99.7% | [15] 103% | [16] 96.3% | [17] 100% | [18] 108% | [19] 108%

C/C(N)=N/P(=O)(Oc1ccccc1)Oc1ccccc1
inactive: [1] 95.7% | [2] 98.7% | [3] 107% | [4] 103% | [5] 98.4% | [6] 103% | [7] 105% | [8] 102% | [9] 111% | [10] 109% | [11] 105% | [12] 96.5% | [13] 89.5% | [14] 108% | [15] 107% | [16] 95.7% | [17] 96.8% | [18] 99.1% | [19] 103%

Cc1ccccc1CN(CCCl)Cc1ccccc1C
inactive: [1] 94.9% | [2] 83.9% | [3] 87.4% | [4] 88.9% | [5] 114% | [6] 107% | [7] 110% | [8] 114% | [9] 94.3% | [10] 104% | [11] 106% | [12] 79.9% | [13] 111% | [14] 111% | [15] 94.3% | [16] 96.6% | [17] 102% | [18] 96.8% | [19] 97.7%

O=C(C(=O)c1ccc([N+](=O)[O-])cc1[N+](=O)[O-])c1ccc([N+](=O)[O-])cc1[N+](=O)[O-]
inactive: [1] 93.6% | [2] 93.6% | [3] 97.7% | [4] 95.8% | [5] 104% | [6] 96.7% | [7] 93.9% | [8] 98.8% | [9] 104% | [10] 105% | [11] 97.2% | [13] 86% | [14] 105% | [15] 115% | [16] 79.7% | [17] 86.8% | [18] 108% | [19] 103%

CCOP(=O)(Nc1ccccc1)OCC
inactive: [1] 95.4% | [2] 95.5% | [3] 101% | [4] 103% | [5] 103% | [6] 111% | [7] 92.6% | [8] 101% | [9] 110% | [10] 109% | [11] 105% | [12] 88.8% | [13] 100% | [14] 112% | [15] 102% | [16] 103% | [17] 96.4% | [19] 107%

ClCCN1Cc2ccccc2C1
inactive: [1] 113% | [2] 72.7% | [3] 94.5% | [4] 103% | [5] 96.5% | [6] 94.2% | [7] 111% | [8] 101% | [9] 102% | [10] 97.6% | [11] 107% | [12] 93.5% | [13] 115% | [14] 94.7% | [15] 89.4% | [16] 97.7% | [17] 92.2% | [18] 99.1% | [19] 99.8%

Nc1nnc(N)nn1
inactive: [1] 107% | [2] 105% | [3] 97.5% | [4] 102% | [5] 105% | [6] 116% | [7] 106% | [8] 109% | [9] 110% | [10] 101% | [12] 109% | [13] 104% | [14] 98.1% | [15] 108% | [16] 101% | [17] 112% | [18] 104% | [19] 109%
